# Results reported in article PMC12102759.
# B1: MBOAT1 peptide 15-30 (Lysophospholipid acyltransferase 1), 16-mer library wild type / USP7 MATH (USP7 MATH domain, residues 53-206) (parent)
# chain 1: TGSTYLHPLSELLGIP
# chain 2: NTAEEDMEDDTSWRSEATFQFTVERFSRLSESVLSPPCFVRNLPWKIMVMPRFYPDRPHQKSVGFFLQCNAESDSTSWSCHAQAVLKIINYRDDEKSFSRRISHLFFHKENDWGFSNFMAWSEVTDPEKGFIDDDKVTFEVFVQADAPHGVAWD
# B2: AZIN2 peptide 3-18 (Antizyme inhibitor 2), 16-mer library wild type / USP7 MATH (USP7 MATH domain, residues 53-206) (parent)
# chain 1: GYLSESDFVMVEEGFS
# chain 2: B1 chain 2
# B3: MBOAT1 peptide 17-32 (Lysophospholipid acyltransferase 1), 16-mer library wild type / USP7 MATH (USP7 MATH domain, residues 53-206) (parent)
# chain 1: STYLHPLSELLGIPLD
# chain 2: B1 chain 2
# B4: AZIN2 peptide 1-16 (Antizyme inhibitor 2), 16-mer library wild type / USP7 MATH (USP7 MATH domain, residues 53-206) (parent)
# chain 1: MAGYLSESDFVMVEEG
# chain 2: B1 chain 2
# Variants of: B1
# Assay: proteomic peptide phage display deep mutational scan (ProP-PD DMS): M13 P8 16-mer library selected against immobilised GST-tagged bait for four days (rounds), NGS of the eluted pools per day and pseudo-replica
# Details: with USP7 MATH (USP7 MATH domain, residues 53-206); bait immobilised on MaxiSorp plates (10 µg), library pre-cleared on GST, 2 h binding at 4 °C, five washes; one round per day, days 1-4; value from days 2 and 3; keep out of graded; scale: average fractional NGS count over selection days 2 and 3
row,screen value,Variant
1,0,chain 1 P8T
2,0,chain 1 P8Q
3,0,chain 1 P8E
4,0,chain 1 P8N
5,0,chain 1 P8L
6,1.53e-05,chain 1 P16N
7,0,chain 1 P16Q
8,1.34e-05,chain 1 P16G
9,3.58e-05,chain 1 P16A
10,0,chain 1 P16D
11,0,chain 1 P16H
12,0.000173,chain 1 P16S
13,0.000913,chain 1 P16V
14,0.00014,chain 1 P16M
15,0,chain 1 P16E
16,5.35e-05,chain 1 P16W
17,9.4e-06,chain 1 P16I
18,4.7e-05,chain 1 P16T
19,1.74e-05,chain 1 P16Y
20,0,chain 1 P16L
21,0,chain 1 G2P
22,0,chain 1 G2T
23,0,chain 1 G2S
24,2.68e-05,chain 1 G2A
25,3.52e-05,chain 1 G2I

row,screen value,Variant
1,0.000755,chain 1 G2E
2,0.000117,chain 1 G2L
3,0.000133,chain 1 G2F
4,0.000165,chain 1 G2W
5,0.000108,chain 1 G2Y
6,5.42e-05,chain 1 G2V
7,0.000147,chain 1 G2D
8,0.000101,chain 1 G2M
9,0,chain 1 G2H
10,1.61e-05,chain 1 I15F
11,0,chain 1 I15L
12,0,chain 1 I15P
13,0.000224,chain 1 I15W
14,0,chain 1 I15V
15,0,chain 1 I15R
16,0,chain 1 I15S
17,2.63e-05,chain 1 I15Q
18,0,chain 1 I15G
19,0.000147,chain 1 I15M
20,0,chain 1 G14L
21,0,chain 1 G14F
22,0,chain 1 G14R
23,0,chain 1 G14I
24,0,chain 1 G14Y
25,0,chain 1 G14V

row,screen value,Variant
1,0,chain 1 G14W
2,0,chain 1 G14H
3,0,chain 1 G14N
4,0,chain 1 G14K
5,0,chain 1 G14T
6,0,chain 1 G14A
7,1.16e-05,chain 1 G14S
8,0,chain 1 G14M
9,4.73e-05,chain 1 S3M
10,5.22e-05,chain 1 S3F
11,1.31e-05,chain 1 S3Q
12,3.03e-05,chain 1 S3H
13,6.88e-05,chain 1 S3L
14,3.23e-05,chain 1 S3E
15,8.6e-06,chain 1 S3A
16,6.29e-05,chain 1 S3D
17,0,chain 1 H7M
18,0,chain 1 H7V
19,0,chain 1 H7Q
20,0,chain 1 E11D
21,0,chain 1 E11A
22,0,chain 1 E11M
23,0,chain 1 E11L
24,0,chain 1 E11K
25,0,chain 1 E11Y

row,screen value,Variant
1,0,chain 1 E11I
2,0,chain 1 E11P
3,0,chain 1 E11F
4,0,chain 1 E11Q
5,0,chain 1 L6M
6,0,chain 1 L6P
7,0,chain 1 L6F
8,0,chain 1 L6W
9,3.89e-05,chain 1 L6I
10,0,chain 1 L6V
11,0,chain 1 L6D
12,0,chain 1 L6Q
13,1.45e-05,chain 1 L13F
14,0,chain 1 L13I
15,0,chain 1 L13M
16,0,chain 1 L13S
17,0,chain 1 L9M
18,0,chain 1 L9I
19,0,chain 1 L12D
20,0.000745,chain 1 L12F
21,0.000166,chain 1 L12Y
22,0,chain 1 L12M

# Variants of: B2
# Assay: as above
# Details: with USP7 MATH (USP7 MATH domain, residues 53-206); bait immobilised on MaxiSorp plates (10 µg), library pre-cleared on GST, 2 h binding at 4 °C, five washes; one round per day, days 1-4; value from days 2 and 3; keep out of graded; scale: average fractional NGS count over selection days 2 and 3
row,screen value,Variant
1,0,chain 1 F8D
2,0,chain 1 F8A
3,0,chain 1 F8G
4,0,chain 1 S4H
5,0,chain 1 S4Q
6,0,chain 1 S4G
7,0,chain 1 S4L
8,0,chain 1 D7I
9,0,chain 1 S6H
10,0,chain 1 V11L
11,0,chain 1 V11F
12,0,chain 1 V11W
13,0,chain 1 V11H
14,0,chain 1 G14V
15,0,chain 1 G14S
16,0,chain 1 G14Y
17,0,chain 1 G14P

row,screen value,Variant
1,0,chain 1 V9L
2,0,chain 1 V9D
3,0,chain 1 V9T
4,0,chain 1 Y2E
5,0,chain 1 L3Q
6,0,chain 1 L3I
7,0,chain 1 E13Y
8,0,chain 1 E13K
9,0,chain 1 E13V
10,0,chain 1 F15G
11,0,chain 1 G1M
12,0,chain 1 E5H
13,0,chain 1 E5N
14,1.31e-05,chain 1 E5W
15,0,chain 1 E5S
16,0,chain 1 E12I
17,0,chain 1 E12L

# Variants of: B3
# Assay: as above
# Details: with USP7 MATH (USP7 MATH domain, residues 53-206); bait immobilised on MaxiSorp plates (10 µg), library pre-cleared on GST, 2 h binding at 4 °C, five washes; one round per day, days 1-4; value from days 2 and 3; keep out of graded; scale: average fractional NGS count over selection days 2 and 3
row,screen value,Variant
1,0,chain 1 S8G
2,0,chain 1 S8N
3,0,chain 1 S8P
4,0.000118,chain 1 S1E
5,0,chain 1 S1K
6,3.24e-05,chain 1 S1T
7,0.000172,chain 1 S1P
8,4.85e-05,chain 1 S1L
9,0.000299,chain 1 S1F
10,0.000374,chain 1 S1D
11,0,chain 1 S1R
12,0.000136,chain 1 S1I
13,0.00194,chain 1 S1V
14,0.0012,chain 1 S1N
15,0.000193,chain 1 S1H
16,0.000128,chain 1 S1Q
17,0.000139,chain 1 S1A
18,1.74e-05,chain 1 S1M
19,0.000375,chain 1 S1W
20,0.00384,chain 1 S1Y
21,8.63e-05,chain 1 L15W
22,0.000652,chain 1 L15V
23,0,chain 1 L15Q
24,8.36e-05,chain 1 L15G
25,2.33e-05,chain 1 L15A

row,screen value,Variant
1,0,chain 1 L15P
2,0,chain 1 L15H
3,9.88e-05,chain 1 L15T
4,8.73e-05,chain 1 L15M
5,0.000946,chain 1 L15Y
6,0.00201,chain 1 L15F
7,0.000175,chain 1 L15I
8,2.39e-05,chain 1 H5S
9,0,chain 1 H5L
10,0.00442,chain 1 H5N
11,0,chain 1 H5Q
12,0,chain 1 H5T
13,0,chain 1 H5M
14,0,chain 1 H5F
15,0.00209,chain 1 Y3A
16,3.01e-05,chain 1 Y3S
17,0,chain 1 Y3K
18,0,chain 1 Y3F
19,1.61e-05,chain 1 Y3T
20,1.16e-05,chain 1 Y3Q
21,8.51e-05,chain 1 Y3H
22,0.000373,chain 1 Y3G
23,0.000183,chain 1 Y3D
24,4.01e-05,chain 1 Y3M
25,2.33e-05,chain 1 Y3N

row,screen value,Variant
1,0.000475,chain 1 Y3P
2,0,chain 1 Y3I
3,0,chain 1 Y3W
4,1.45e-05,chain 1 Y3E
5,0,chain 1 L7W
6,0,chain 1 L7I
7,0,chain 1 L7Y
8,0,chain 1 L7M
9,0,chain 1 L4N
10,0.00767,chain 1 L4I
11,1.8e-05,chain 1 L4A
12,4.32e-05,chain 1 L4H
13,2.04e-05,chain 1 L4T
14,5.14e-05,chain 1 L4V
15,0,chain 1 L4D
16,6.6e-05,chain 1 L4M
17,0.000444,chain 1 L4W
18,0,chain 1 L4S
19,0.000124,chain 1 L4P
20,0.000455,chain 1 L4Y
21,0,chain 1 E9I
22,0,chain 1 E9L
23,0,chain 1 E9S
24,6.69e-06,chain 1 E9Y
25,0,chain 1 E9P

row,screen value,Variant
1,0,chain 1 L11Q
2,0.000148,chain 1 L11A
3,0.000136,chain 1 L11I
4,0,chain 1 L11H
5,3.52e-05,chain 1 L11F
6,0.0649,chain 1 L11W
7,9.4e-06,chain 1 L11S
8,4.27e-05,chain 1 L11N
9,9.83e-05,chain 1 L11R
10,2.33e-05,chain 1 L11V
11,0.00517,chain 1 L11Y
12,1.26e-05,chain 1 L11M
13,0.00014,chain 1 L10H
14,1.04e-05,chain 1 L10W
15,0.002,chain 1 L10F
16,3.94e-05,chain 1 L10S
17,0.133,chain 1 L10Y
18,0,chain 1 L10P
19,6.69e-06,chain 1 L10D
20,0.000356,chain 1 L10M
21,2.39e-05,chain 1 P14Q
22,0,chain 1 P14H
23,6.69e-06,chain 1 P14V
24,1.04e-05,chain 1 P14I
25,6.69e-06,chain 1 P14Y

row,screen value,Variant
1,0.00152,chain 1 P14M
2,7.26e-05,chain 1 P14D
3,0.00152,chain 1 P14A
4,0,chain 1 P14F
5,0,chain 1 P14W
6,1.93e-05,chain 1 P14G
7,0,chain 1 P14L
8,6.79e-05,chain 1 P14E
9,1.04e-05,chain 1 P14N
10,0.00153,chain 1 I13Y
11,0.000169,chain 1 I13F
12,0,chain 1 I13D
13,8.6e-06,chain 1 I13G
14,0.00251,chain 1 I13Q
15,0,chain 1 I13N
16,0.00016,chain 1 I13T
17,8.7e-05,chain 1 I13H
18,0.00171,chain 1 I13L
19,0.00144,chain 1 G12T
20,1.55e-05,chain 1 G12Y
21,0,chain 1 G12D
22,5.99e-05,chain 1 G12P
23,0.000621,chain 1 G12Q
24,5.33e-05,chain 1 G12M
25,6.19e-05,chain 1 G12R

row,screen value,Variant
1,2.65e-05,chain 1 G12W
2,0.000403,chain 1 G12H
3,1.43e-05,chain 1 G12F
4,0,chain 1 G12K
5,0,chain 1 G12I
6,0.00987,chain 1 G12A
7,0.000155,chain 1 G12S
8,6.89e-05,chain 1 G12N
9,0,chain 1 P6E
10,0.00203,chain 1 T2Y
11,1.45e-05,chain 1 T2A
12,1.82e-05,chain 1 T2H
13,0.00112,chain 1 T2F
14,0,chain 1 T2M
15,9.63e-06,chain 1 T2W
16,2.12e-05,chain 1 T2Q
17,2.33e-05,chain 1 T2I
18,0.000358,chain 1 T2V
19,2.98e-05,chain 1 T2S
20,9.63e-06,chain 1 T2P
21,0,chain 1 T2K
22,6.5e-05,chain 1 T2L
23,0,chain 1 T2R
24,0.00105,chain 1 T2D
25,0,chain 1 T2E

# Variants of: B4
# Assay: as above
# Details: with USP7 MATH (USP7 MATH domain, residues 53-206); bait immobilised on MaxiSorp plates (10 µg), library pre-cleared on GST, 2 h binding at 4 °C, five washes; one round per day, days 1-4; value from days 2 and 3; keep out of graded; scale: average fractional NGS count over selection days 2 and 3
row,screen value,Variant
1,0,chain 1 E15P
2,0,chain 1 E15A
3,1.04e-05,chain 1 E15D
4,1.42e-05,chain 1 E14T
5,0,chain 1 E14V
6,0,chain 1 E14H
7,0,chain 1 F10Y
8,0,chain 1 F10M
9,0,chain 1 F10N
10,0,chain 1 F10I
11,0,chain 1 A2S
12,0,chain 1 A2M
13,0,chain 1 A2T
14,0,chain 1 A2D
15,4.9e-05,chain 1 E7K
16,0,chain 1 E7A
17,0,chain 1 S6E
18,0,chain 1 S6H
19,0,chain 1 S8A
20,0,chain 1 S8G
21,8.6e-06,chain 1 S8F
22,2.57e-05,chain 1 V11H
23,1.04e-05,chain 1 V11K
24,0,chain 1 V11Y
25,8.6e-06,chain 1 V11S
26,9.63e-06,chain 1 V11P
27,1.04e-05,chain 1 V11R

row,screen value,Variant
1,9.4e-06,chain 1 V11Q
2,1.98e-05,chain 1 V11N
3,1.53e-05,chain 1 G16I
4,2.96e-05,chain 1 G16W
5,1.16e-05,chain 1 M12T
6,1.82e-05,chain 1 M12P
7,0,chain 1 M12K
8,0,chain 1 V13K
9,1.04e-05,chain 1 V13A
10,6.69e-06,chain 1 V13G
11,0,chain 1 V13W
12,0,chain 1 V13D
13,3.97e-05,chain 1 D9R
14,4.99e-05,chain 1 D9S
15,3.24e-05,chain 1 D9Y
16,3.24e-05,chain 1 D9I
17,3.12e-05,chain 1 D9T
18,2.57e-05,chain 1 G3R
19,0,chain 1 G3S
20,0,chain 1 G3N
21,3.89e-05,chain 1 G3A
22,0,chain 1 L5M
23,0,chain 1 L5R
24,0,chain 1 L5T
25,0,chain 1 Y4I
26,0,chain 1 Y4A
